# Measurements published in PubChem BioAssay AID624296 (National Center for Advancing Translational Sciences (NCATS), 2012).
# The list shows a part of the results, in another mix than the full data. Records with an inconclusive call do not appear. Where a call stands in place of a potency, no number is given. Activity calls are given as the source filed them. The call rests on the fitted dose curve; in most records, active means well fitted activation curve with a large enough effect; inconclusive means small, poorly fitted or top-dose-only effect; inactive means no such curve, though single readings can be large or run the other way.
# Assay: A quantitative high throughput screen for small molecules that induce DNA re-replication in MCF 10a normal breast cells. Further: nearly all actives have a fitted effect of over 50% in size.
# Conditions: MCF 10A DNA re-replication, Hoechst nuclear intensity, 48 h; series mostly up to 46.1 µM
# Potency means the concentration at half of the fitted maximal effect.
row,Compound,Potency
1,CP(=S)(Nn1cnnc1)Oc1ccccc1 (stereo unspecified),inactive
2,CP(=O)(Nc1ccccc1Br)Oc1ccccc1 (stereo unspecified),inactive
3,COc1ccccc1OP(C)(=O)Nc1ccccc1 (stereo unspecified),inactive
4,CN(C)CCS,inactive
5,O=[N+]([O-])c1cc([N+](=O)[O-])c(O)c([N+](=O)[O-])c1.c1ccc(Oc2ccncc2)cc1,inactive
6,CCOC(=O)c1ccc(NP(C)(=O)Oc2ccc(OC)cc2)cc1 (stereo unspecified),inactive
7,CCOP(C)(=S)SCC(=O)NC(C)C(=O)O (stereo unspecified),inactive
8,CP(=O)(Nc1ccccn1)Oc1ccc(Cl)cc1 (stereo unspecified),inactive
9,CP(=O)(Oc1ccccc1)OC(c1ccccc1)C(F)(F)F (stereo unspecified),inactive
10,Cc1cccc(C)c1OP(C)(=O)Nc1ccc(SC(F)(F)F)cc1 (stereo unspecified),inactive
11,Cc1cc(C)cc(OP(C)(=O)Nc2ccc(SC(F)(F)F)cc2)c1 (stereo unspecified),inactive
12,CCc1ccc(OP(C)(=O)N2CCN(c3ccc([N+](=O)[O-])cc3)CC2)cc1 (stereo unspecified),inactive
13,O=[N+]([O-])[O-].[NH4+],inactive
14,CCN(CC)CCCOC(=O)C(O)(c1ccccc1)c1ccccc1,inactive
15,Cc1ccc(NP(C)(=O)Oc2ccccc2)c(C)c1 (stereo unspecified),inactive
16,COc1ccccc1OP(C)(=O)Nc1ccc(C)cc1 (stereo unspecified),inactive
17,CCOC(=O)c1ccc(NP(C)(=O)Oc2ccccc2)cc1 (stereo unspecified),inactive
18,Cc1cc(C)cc(OP(C)(N)=O)c1 (stereo unspecified),inactive
19,COc1ccc(OP(C)(=O)Nc2cccc(F)c2)cc1 (stereo unspecified),inactive
20,COc1ccccc1OP(C)(=O)Nc1cc(Cl)ccc1C (stereo unspecified),inactive
21,O=[N+]([O-])c1ccc2c(c1)C=Nc1ccccc1O2,active: 23.1 µM
22,Cc1cccc(C)c1OP(C)(N)=O (stereo unspecified),inactive
23,CC(C)(C)c1ccc(OP(C)(=O)Nc2ccc(SC(F)(F)F)cc2)cc1 (stereo unspecified),active: 9.2 µM
24,O=[N+]([O-])OCC(CO[N+](=O)[O-])(CO[N+](=O)[O-])CO[N+](=O)[O-],inactive
25,O=[N+]([O-])c1cccc([N+](=O)[O-])c1,inactive
26,Cc1ccc(C)c(NP(C)(=O)Oc2ccccc2)c1 (stereo unspecified),inactive

row,Compound,Potency
1,Cc1cc(C)cc(OP(C)(=O)Nc2ccccn2)c1 (stereo unspecified),inactive
2,CP(=O)(Nc1cccc(Br)c1)Oc1ccccc1 (stereo unspecified),inactive
3,COc1ccccc1OP(C)(=O)Nc1cccc(Br)c1 (stereo unspecified),inactive
4,Cc1cc(C)cc(OP(C)(=O)Nc2ccc(C)cc2C)c1 (stereo unspecified),inactive
5,Cc1nc2ccc3ccccc3c2s1.O=[N+]([O-])c1cc([N+](=O)[O-])c(O)c([N+](=O)[O-])c1,inactive
6,O=[N+]([O-])c1cc([N+](=O)[O-])c(-n2nnc3ccccc32)c([N+](=O)[O-])c1,inactive
7,CN1CCCCC1COC(=O)C1(O)c2ccccc2CCc2ccccc21 (stereo unspecified),inactive
8,COc1ccccc1OP(C)(=O)Nc1c(C)cccc1C (stereo unspecified),inactive
9,CCCOc1ccc(NP(C)(=O)Oc2ccc(Cl)cc2)cc1 (stereo unspecified),inactive
10,CP(=O)(Nc1ccc(SC(F)(F)F)cc1)Oc1ccccc1 (stereo unspecified),inactive
11,CC1=C2N=C(C=C3N=C(C(C)=C4[N-][C@@](C)([C@@H]5N=C1[C@](C)(CCC(=O)NC[C@@H](C)OP(=O)([O-])O[C@H]1[C@@H](O)[C@@H](n6cnc7cc(C)c(C)cc76)O[C@@H]1CO)[C@H]5CC(N)=O)[C@@](C)(CC(N)=O)[C@@H]4CCC(N)=O)[C@@](C)(CC(N)=O)[C@@H]3CCC(N)=O)C(C)(C)[C@@H]2CCC(N)=O.[C-]#N.[Co+3],inactive
12,O=[N+]([O-])c1cc([N+](=O)[O-])c(Nc2nnnn2CCO)c([N+](=O)[O-])c1,inactive
13,Cc1cc(-c2cccc3ccccc23)c(C)cn1.O=[N+]([O-])c1cc([N+](=O)[O-])c(O)c([N+](=O)[O-])c1,inactive
14,Cc1c(C(c2ccc3c(c2)OCO3)c2c(C)n(C)n(-c3ccccc3)c2=O)c(=O)n(-c2ccccc2)n1C.O=[N+]([O-])c1cc([N+](=O)[O-])c(O)c([N+](=O)[O-])c1,inactive
15,COc1ccc(OP(C)(=O)Nc2cccc(Br)c2)cc1 (stereo unspecified),inactive
16,CN(C)CCOC(=O)C(O)(c1ccccc1)C1CCCCC1 (stereo unspecified),inactive
17,CP(=O)(Nc1ccc2c(c1)OCCO2)Oc1ccccc1 (stereo unspecified),inactive
18,Cc1ccccc1NP(C)(=O)Nc1ccccc1C,inactive
19,CP(=O)(Nc1ccc(SC(F)(F)F)cc1)Oc1ccc(F)cc1 (stereo unspecified),inactive
20,CCOP(C)(=S)SCC(=O)NC(C)(CC)C(=O)O (stereo unspecified),inactive
21,O=C(OCCN1CCN(CCOCc2ccccc2)CC1)C(O)(c1ccccc1)c1ccccc1,inactive
22,CC(C)c1ccc(OP(C)(=O)Nc2ccc(SC(F)(F)F)cc2)cc1 (stereo unspecified),active: 20.6 µM
23,Cc1c([N+](=O)[O-])cc([N+](=O)[O-])c(Br)c1[N+](=O)[O-],inactive
24,CCN(CC)CCCOC(=O)C(O)(c1ccccc1)C1CCCCC1 (stereo unspecified),inactive
25,CP(=O)(Nc1ccccc1)Oc1ccc(F)cc1 (stereo unspecified),active: 14.6 µM
26,CCOC(=O)c1ccc(NP(C)(=O)Oc2ccc(F)cc2)cc1 (stereo unspecified),inactive

row,Compound,Potency
1,COc1ccc(OP(C)(=O)Nc2ccc(SC(F)(F)F)cc2)cc1 (stereo unspecified),inactive
2,Cc1cc(C)cc(OP(C)(=O)Nc2cccc(C(F)(F)F)c2)c1 (stereo unspecified),inactive
3,COc1ccccc1OP(C)(=O)Nc1ccc(C)c(C)c1 (stereo unspecified),inactive
4,COc1ccc(OP(C)(=O)Nc2ccccc2Br)cc1 (stereo unspecified),inactive
5,Cc1c(NP(C)(=O)Oc2ccc(C(C)C)cc2)c(=O)n(-c2ccccc2)n1C (stereo unspecified),inactive
6,COc1ccccc1OP(C)(=O)Nc1ccc(C)cc1C (stereo unspecified),inactive
7,CP(=O)(Nc1ccccn1)Oc1ccccc1 (stereo unspecified),inactive
8,CCc1ccc(OP(C)(=O)O)cc1,inactive
9,COc1ccccc1OP(C)(=O)Nc1ccc(Br)cc1 (stereo unspecified),inactive
10,COc1ccc(OP(C)(=O)Nc2ccccn2)cc1 (stereo unspecified),inactive
11,CN(C)CCOC(=O)C(O)(c1ccccc1)C1CCCC1 (stereo unspecified),inactive
12,COc1ccccc1OP(C)(=O)Nc1ccccc1Br (stereo unspecified),inactive
13,CC(C)(C)c1ccc(OP(C)(=O)O)cc1,inactive
14,COc1ccc(OP(C)(=O)Nc2ccc(Br)cc2)cc1 (stereo unspecified),inactive
15,CCN(CC)CC(O)COC(=O)C(O)(c1ccccc1)C1CCCCC1 (stereo unspecified),inactive
16,N#[O+].[C-]#N.[C-]#N.[C-]#N.[C-]#N.[C-]#N.[Fe+2].[Na+].[Na+],inactive
17,OCCSCCO,inactive
18,COc1ccccc1OP(C)(=O)Nc1c(C)n(C)n(-c2ccccc2)c1=O (stereo unspecified),inactive
19,CCc1ccc(OP(C)(=O)Nc2cccnc2)cc1 (stereo unspecified),inactive
20,CP(=O)(Oc1ccccc1)N1CCOC1=O (stereo unspecified),inactive
21,CC(C)OP(=O)(F)OC(C)C,inactive
22,C/C1=C2N=C(/C=C3N=C(/C(C)=C4\[N-][C@@](C)([C@H]5N=C1[C@@](C)(CCC(=O)NC[C@H](C)OP(=O)([O-])O[C@@H]1[C@H](O)[C@H](n6cnc7cc(C)c(C)cc76)O[C@@H]1CO)[C@@H]5CC(N)=O)[C@](C)(CC(N)=O)[C@H]4CCC(N)=O)[C@@](C)(CC(N)=O)[C@@H]\3CCC(N)=O)C(C)(C)[C@@H]/2CCC(N)=O.[C-]#N.[Co+3],inactive
23,Nc1ccc2c(ccc3cccnc32)n1.O=[N+]([O-])c1cc([N+](=O)[O-])c(O)c([N+](=O)[O-])c1,inactive
24,CCOC(=O)c1ccc(NP(C)(=O)Oc2ccc(Cl)cc2)cc1 (stereo unspecified),inactive
